Cyclic peptide permeability, from CycPeptMPDB

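Lipid, pH, incubation time, direction and concentration are not recorded in the data file. The list need not hold all peptides of the study. Peptides that the database sets to -10, its floor, are left out.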

PAMPA is the parallel artificial membrane permeability assay, which has no cells and reads passive diffusion. Permeability is given as log10 of P in cm/s; higher (less negative) is more permeable.

CCCN1CC(=O)N(Cc2ccccc2)CC(=O)N(C)[C@H](CC(C)C)C(=O)N2CCC[C@H]2C(=O)N[C@H](CC(C)C)C(=O)N[C@@H](Cc2ccccc2)C(=O)N2CCC[C@@H]2C1=O is reported with PAMPA -5.60 (log10 cm/s). For CC(C)C[C@H]1NC(=O)[C@@H]2CCCN2C(=O)[C@H](CC(C)C)N(C)C(=O)[C@H](CC(C)C)N(C)C(=O)[C@H](C)N(C)C(=O)[C@H](Cc2ccccc2)NC1=O the data give PAMPA -5.08 (log10 cm/s). Listed for CC(C)C[C@@H]1C(=O)N(C)[C@@H](CC(C)C)C(=O)N2CCC[C@@H]2C(=O)N(C)[C@@H](CC(C)C)C(=O)N[C@@H](Cc2ccccc2)C(=O)N2CCC[C@H]2C(=O)N(C)[C@@H](C)C(=O)N1C: PAMPA -5.45 (log10 cm/s). For CC(C)C[C@@H]1C(=O)N[C@@H](Cc2ccccc2)C(=O)N[C@@H](C)C(=O)N[C@H](CC(C)C)C(=O)N(C)[C@@H](CC(C)C)C(=O)N2CCC[C@@H]2C(=O)N1C the data give PAMPA -5.69 (log10 cm/s).

CC(C)C[C@@H]1C(=O)N(C)[C@@H](CC(C)C)C(=O)N2CCC[C@@H]2C(=O)N[C@H](CC(C)C)C(=O)N[C@@H](Cc2ccccc2)C(=O)N2CCC[C@H]2C(=O)N[C@@H](C)C(=O)N1C is reported with PAMPA -5.60 (log10 cm/s). CCCN1CC(=O)N(C)[C@H](CC(C)C)C(=O)N(C)[C@H](CC(C)C)C(=O)N2CCC[C@@H]2C(=O)N(C)[C@@H](CC(C)C)C(=O)N[C@@H](Cc2ccccc2)C(=O)N2CCC[C@H]2C1=O is reported with PAMPA -5.13 (log10 cm/s). For CC(C)C[C@@H]1C(=O)N(C)[C@@H](CC(C)C)C(=O)N2CCC[C@@H]2C(=O)N(C)[C@H](CC(C)C)C(=O)N[C@@H](Cc2ccccc2)C(=O)N[C@@H](C)C(=O)N1C the data give PAMPA -5.03 (log10 cm/s). For CC(C)C[C@@H]1NC(=O)[C@H](CC(C)C)N(C)C(=O)[C@@H](C)N(C)C(=O)[C@H](Cc2ccccc2)NC(=O)CN(Cc2ccccc2)C(=O)[C@H]2CCCN2C1=O the data give PAMPA -5.22 (log10 cm/s).

CC(C)C[C@@H]1C(=O)N(Cc2ccccc2)CC(=O)N2CCC[C@@H]2C(=O)N(C)[C@@H](CC(C)C)C(=O)N[C@@H](Cc2ccccc2)C(=O)N2CCC[C@@H]2C(=O)N[C@H](C)C(=O)N1C is reported with PAMPA -5.66 (log10 cm/s). The entry for CC(C)C[C@H]1NC(=O)[C@@H](C)NC(=O)[C@H](Cc2ccccc2)NC(=O)[C@H](CC(C)C)N(C)C(=O)[C@H]2CCCN2C(=O)CN(Cc2ccccc2)C1=O lists PAMPA -5.89 (log10 cm/s). CC(C)C[C@@H]1NC(=O)[C@H](CC(C)C)N(C)C(=O)C[C@H](Cc2ccccc2)NC(=O)[C@H](Cc2ccccc2)NC(=O)[C@@H](CC(C)C)N(C)C(=O)[C@@H]2CCCN2C1=O has PAMPA -5.26 (log10 cm/s). For CC(C)C[C@@H]1NC(=O)[C@H](CC(C)C)N(C)C(=O)[C@H](C)N(C)C(=O)[C@H]2CCCN2C(=O)[C@H](Cc2ccccc2)NC(=O)[C@@H](CC(C)C)N(C)C(=O)[C@H]2CCCN2C1=O the data give PAMPA -5.59 (log10 cm/s).

The entry for CC(C)C[C@@H]1NC(=O)[C@H](CC(C)C)N(C)C(=O)C[C@H](Cc2ccccc2)NC(=O)[C@H]2CCCN2C(=O)[C@H](Cc2ccccc2)NC(=O)[C@H](CC(C)C)N(C)C(=O)[C@@H]2CCCN2C1=O lists PAMPA -5.17 (log10 cm/s). For CC(C)C[C@H]1NC(=O)[C@H](C)NC(=O)[C@H](Cc2ccccc2)NC(=O)[C@@H](CC(C)C)NC(=O)[C@@H]2CCCN2C(=O)C[C@H](Cc2ccccc2)NC1=O the data give PAMPA -6.54 (log10 cm/s). CC(C)C[C@H]1C(=O)N[C@@H](Cc2ccccc2)C(=O)N2CCC[C@@H]2C(=O)N[C@H](C)C(=O)N(Cc2ccccc2)CC(=O)N[C@@H](Cc2ccccc2)CC(=O)N2CCC[C@H]2C(=O)N1C has PAMPA -5.10 (log10 cm/s). CC(C)C[C@H]1NC(=O)[C@H]2CCCN2C(=O)[C@H](CC(C)C)N(C)C(=O)CN(Cc2ccccc2)C(=O)[C@H](C)N(C)C(=O)[C@H]2CCCN2C(=O)[C@H](Cc2ccccc2)NC1=O is reported with PAMPA -5.67 (log10 cm/s).

CC(C)C[C@@H]1NC(=O)[C@@H](C)NC(=O)[C@H]2CCCN2C(=O)[C@H](Cc2ccccc2)NC(=O)CN(Cc2ccccc2)C(=O)[C@@H]2CCCN2C(=O)[C@H](CC(C)C)NC1=O has PAMPA -6.40 (log10 cm/s). Listed for CC(C)C[C@@H]1NC(=O)[C@@H](CC(C)C)NC(=O)[C@H](C)NC(=O)[C@H](Cc2ccccc2)NC(=O)[C@H](CC(C)C)N(C)C(=O)[C@H]2CCCN2C1=O: PAMPA -5.30 (log10 cm/s). The entry for CC(C)C[C@@H]1NC(=O)[C@H](C)N(C)C(=O)[C@H]2CCCN2C(=O)[C@H](Cc2ccccc2)NC(=O)[C@@H](CC(C)C)N(C)C(=O)[C@H]2CCCN2C(=O)[C@H](CC(C)C)NC1=O lists PAMPA -5.64 (log10 cm/s).

A selection of 2 entries from above:

| compound | PAMPA (log10 cm/s) |
|---|---|
| CC(C)C[C@@H]1C(=O)N[C@@H](Cc2ccccc2)C(=O)N[C@@H](C)C(=O)N[C@H](CC(C)C)C(=O)N(C)[C@@H](CC(C)C)C(=O)N2CCC[C@@H]2C(=O)N1C | -5.69 |
| CC(C)C[C@@H]1C(=O)N(C)[C@@H](CC(C)C)C(=O)N2CCC[C@@H]2C(=O)N(C)[C@@H](CC(C)C)C(=O)N[C@@H](Cc2ccccc2)C(=O)N2CCC[C@H]2C(=O)N(C)[C@@H](C)C(=O)N1C | -5.45 |

Collected by the curators of CycPeptMPDB (Li et al. 2023) from Townsend et al. 2020, doi:10.26434/chemrxiv.13335941.v1.